Laboratory results taken from the NIST ThermoML archive (doi:10.1021/je034007i).

How the values were obtained:
[1] = 308.15 K; 101.33 kPa; Liquid; vibrating tube
[2] = excess molar enthalpy (molar enthalpy of mixing); xn = mol fraction of the nth substance listed; details: 308.15 K, 101.3 kPa, Liquid

Row | mass density [1] [kg/m3] | excess molar enthalpy ([2]; x1 = 0.0169) [kcal/mol] | excess molar enthalpy ([2]; x1 = 0.0332) [kcal/mol] | excess molar enthalpy ([2]; x1 = 0.049) [kcal/mol] | excess molar enthalpy ([2]; x1 = 0.0643) [kcal/mol] | excess molar enthalpy ([2]; x1 = 0.0934) [kcal/mol] | excess molar enthalpy ([2]; x1 = 0.1208) [kcal/mol] | excess molar enthalpy ([2]; x1 = 0.1709) [kcal/mol] | excess molar enthalpy ([2]; x1 = 0.2155) [kcal/mol] | excess molar enthalpy ([2]; x1 = 0.2919) [kcal/mol] | excess molar enthalpy ([2]; x1 = 0.3818) [kcal/mol] | excess molar enthalpy ([2]; x1 = 0.4519) [kcal/mol] | excess molar enthalpy ([2]; x1 = 0.5529) [kcal/mol] | excess molar enthalpy ([2]; x1 = 0.6225) [kcal/mol] | excess molar enthalpy ([2]; x1 = 0.7121) [kcal/mol] | excess molar enthalpy ([2]; x1 = 0.7673) [kcal/mol] | excess molar enthalpy ([2]; x1 = 0.8318) [kcal/mol] | excess molar enthalpy ([2]; x1 = 0.9082) [kcal/mol] | SMILES
1 | 1112.28 ± 0.56 | – | – | – | – | – | – | – | – | – | – | – | – | – | – | – | – | – | OCCOCCOCCOCCO [tetraethylene glycol]
2 | – | -0.0263 ± 0.000789 | -0.0483 ± 0.00112 | -0.0692 ± 0.00148 | -0.0873 ± 0.00179 | -0.118 ± 0.00232 | -0.144 ± 0.00287 | -0.177 ± 0.00335 | -0.2 ± 0.00382 | -0.22 ± 0.00406 | -0.227 ± 0.0043 | -0.226 ± 0.0043 | -0.216 ± 0.00406 | -0.202 ± 0.00382 | -0.178 ± 0.00335 | -0.161 ± 0.00311 | -0.133 ± 0.00263 | -0.0839 ± 0.00174 | OCCOCCOCCOCCO [tetraethylene glycol] + C[S+](C)[O-]

Numbers after ± are expanded uncertainties.
